Results from PubChem BioAssay AID1665 (Sanford-Burnham Center for Chemical Genomics, 2009).
The list shows a part of the results, in another mix than the full data. The source made the active and inactive calls.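 The calls were made as follows: active = nuclear translocation activity above 50% at 5 µM, with a well cell count of 50 or more; inconclusive = wells under 50 cells across six images, flagged as toxic; inactive = the rest.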

Assay: beta-catenin nuclear localization change in HeLa – imaging, HeLa cells, immunofluorescence, high-content, primary screen (AID 1665);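 also: per-cell ratio of nuclear to cytoplasmic median beta-catenin stain intensity; plate controls were DMSO negative control for no effect and GSK-3 inhibitor IX positive control for full effect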
Details: at 5 µM, active compounds read high

| Compound | nuclear translocation activity |
| --- | --- |
| CC(C)(C)C(=O)NC(Sc1ncccn1)C(Cl)(Cl)Cl (stereo not given) | inactive: -2.1% |
| Clc1n[nH]nc1-c1nn[nH][15n]1 | inactive: 0.9% |
| O=[N+]([O-])c1cc([N+](=O)[O-])c(-n2nnc3ccccc32)c([N+](=O)[O-])c1 | inactive: 4.3% |
| O=P1(Nc2ccccn2)COc2ccccc2OC1 | inactive: -6.5% |
| CCOP(=O)(Nc1ccc(C)cn1)OCC | inactive: -1.4% |
| CCOP(=O)(Nc1cccc2ccccc12)OCC | inactive: 0.6% |
| Nc1cccc2c([As](=O)(O)O)cccc12 | inactive: -2.9% |
| Cc1ccc(NCCc2c([N+](=O)[O-])cc([N+](=O)[O-])cc2[N+](=O)[O-])cc1 | inactive: 0.3% |
| CP(=O)(Nc1cccc(Br)c1)Oc1ccccc1 (stereo not given) | inactive: -0.6% |
| CCCOP(=S)(Nc1nc(N)cc(=O)[nH]1)OCCC | inactive: -1.5% |
| Cc1ccc(C)c(NP(C)(=O)Oc2ccccc2)c1 (stereo not given) | inactive: -0.3% |
| O=[As](O)(c1cccc(O)c1)c1cccc(O)c1 | inactive: 0% |
| Cc1cccc(OCC(=O)OC2CN3CCC2CC3)c1 (stereo not given) | inactive: -2.1% |
| CCOC(=O)c1ccc(NP(C)(=O)Oc2cc(C)cc(C)c2)cc1 (stereo not given) | inactive: 1.7% |
| O=C(OC1CN2CCC1CC2)c1ccc(Cl)cc1 (stereo not given) | inactive: 0.4% |
| COc1ccccc1OP(C)(=O)Nc1cccc(Br)c1 (stereo not given) | inactive: 1.3% |
| COc1cc(C(=O)NCC2(N3CCOCC3)CCCCC2)cc(Cl)c1OC(C)C | inactive: -0.9% |
| O=[As](O)(O)c1cccnc1 | inactive: -1.4% |
| CN(C(=O)Cc1ccccc1)[C@@H]1CC[C@]2(CCCO2)C[C@H]1N1CCCC1 | inactive: -2.4% |
| CCOP1(=S)c2c(C)nn(CCC#N)c2N=C(c2ccc(F)cc2)N1C (stereo not given) | inactive: 1.1% |
| CC1=NCCc2c1[nH]c1ccccc21.O=[N+]([O-])c1cc([N+](=O)[O-])c(O)c([N+](=O)[O-])c1 | inactive: 1.4% |
| O=[N+]([O-])c1ccc2c(c1)nnn2O | inactive: -5.3% |
| NC(=O)Nc1ccc([As](=O)(O)O)cc1 | inactive: 0.9% |
| O=C(O)COc1ccc([As](=O)(O)O)cc1[N+](=O)[O-] | inactive: 0.2% |

| Compound | nuclear translocation activity |
| --- | --- |
| Nc1ccccc1[As](=O)(O)c1ccccc1 | inactive: 0.4% |
| O=P(Nc1nccs1)(c1ccccc1)c1nc2ccccc2s1 (stereo not given) | inactive: -0.6% |
| O=P(Nc1nccs1)(Oc1ccccc1)Oc1ccccc1 | inactive: 1.2% |
| O=C(O)c1cccc(Nc2c([N+](=O)[O-])cc([N+](=O)[O-])cc2[N+](=O)[O-])c1 | inactive: -0.6% |
| CS(=O)(=O)c1cc([N+](=O)[O-])c2no[n+]([O-])c2c1 | inactive: 0.2% |
| O=[N+]([O-])c1cc([N+](=O)[O-])c(-c2ccn[nH]2)s1 | inactive: 6.2% |
| CCN(CC)C(=S)SC(NC=O)C(Cl)(Cl)Cl (stereo not given) | inactive: -2.3% |
| CC(C)NC(=O)NP(=O)(Oc1ccccc1)Oc1ccccc1 | inactive: -2.4% |
| COc1ccccc1OP(C)(=O)Nc1cc(Cl)ccc1C (stereo not given) | inactive: 0.9% |
| Cc1cc(C)cc(OP(C)(N)=O)c1 (stereo not given) | inactive: 0.2% |
| ClCCSc1nnc(-c2cccnc2)o1 | inactive: 6.8% |
| CCOC(=O)c1ccc(NP(C)(=O)Oc2ccccc2)cc1 (stereo not given) | inactive: -4.1% |
| CC(C)c1ccc(OP(=O)(Nc2ccccn2)Oc2ccccc2F)cc1 (stereo not given) | inactive: 0.5% |
| Cc1ccc(NP(C)(=O)Oc2ccccc2)c(C)c1 (stereo not given) | inactive: -8.5% |
| Cc1cccc(C)c1OP(C)(N)=O (stereo not given) | inactive: 0.2% |
| CC(C)(C)c1ccc(OP(C)(=O)Nc2ccc(SC(F)(F)F)cc2)cc1 (stereo not given) | inactive: -0.3% |
| Cc1ccc(OP(=O)(Nc2ccc([N+](=O)[O-])cn2)Oc2ccc(C)cc2)cc1 | inactive: -1.8% |
| Cc1ccc2nc3c(c(C)c2c1)CC(C(Cl)Cl)S3 (stereo not given) | inactive: -1.9% |
| O=[N+]([O-])c1ccc2c(c1)C=Nc1ccccc1O2 | inactive: 0% |
| C[As](=O)(O)c1cccc(C(=O)O)c1 | inactive: -1.1% |
| O=[As](O)(c1ccc(O)cc1)c1ccccc1O | inactive: -0.4% |
| COc1ccc(N/C(=N/P(=O)(N2CCOCC2)N2CCOCC2)N2CCOCC2)cc1 | inactive: -0.9% |
| COc1cc(I)ccc1[As](=O)(O)O | inactive: 0.4% |
| COc1ccc2nc(NP(=O)(c3ccccc3)c3ccccc3)sc2c1 | inactive: -1.2% |

| Compound | nuclear translocation activity |
| --- | --- |
| Cc1c2c(nc3ccccc13)SC(C(Cl)Cl)C2 (stereo not given) | inactive: 1.1% |
| CCN(CC)CCCOC(=O)C(O)(c1ccccc1)c1ccccc1 | inactive: -0.9% |
| Cc1cc(=O)[nH]c(N[N+](=O)[O-])n1 | inactive: -2.8% |
| O=C(OC1CN2CCC1CC2)C12CC3CC(CC(C3)C1)C2 (stereo not given) | inactive: 0.9% |
| CCC(C)N(CC(C)C)C(=S)SC(NC(C)=O)C(Cl)(Cl)Cl (stereo not given) | inactive: -5.6% |
| CP(=O)(Nc1ccccn1)Oc1ccc(Cl)cc1 (stereo not given) | inactive: -0.2% |
| CCOP(C)(=S)SCC(=O)NC(C)C(=O)O (stereo not given) | inactive: -4.5% |
| CCOC(=O)c1ccc(NC(=O)C(C)(CCl)SC)cc1 (stereo not given) | inactive: -1.5% |
| Cc1cc(C)cc(OP(C)(=O)Nc2ccc(SC(F)(F)F)cc2)c1 (stereo not given) | inactive: -2.9% |
| CCc1ccc(OP(C)(=O)N2CCN(c3ccc([N+](=O)[O-])cc3)CC2)cc1 (stereo not given) | inactive: 1.1% |
| CP(=O)(NC(=O)Nc1ccccc1)Oc1ccccc1 (stereo not given) | inactive: -0.3% |
| O=C(COc1ccccc1)OC1CN2CCC1CC2 (stereo not given) | inactive: -1.3% |
| CP(=O)(Oc1ccccc1)OC(c1ccccc1)C(F)(F)F (stereo not given) | inactive: -0.9% |
| CP(=O)(Nc1ccc(SC(F)(F)F)cc1)Oc1ccc(Cl)cc1 (stereo not given) | inactive: 0.4% |
| Cc1cccc(C)c1OP(C)(=O)Nc1ccc(SC(F)(F)F)cc1 (stereo not given) | inactive: 0.2% |
| COc1ccccc1OP(C)(=O)Nc1ccccc1 (stereo not given) | inactive: 0% |
| Cc1cc(SC(NC=O)C(Cl)(Cl)Cl)ncn1 (stereo not given) | inactive: -3.5% |
| O=P(Nc1ccccn1)(c1cccc2ccccc12)c1cccc2ccccc12 | inactive: 0.1% |
| O=[N+]([O-])c1ccc(Nc2ccc(Oc3ccc([N+](=O)[O-])cc3[N+](=O)[O-])cc2)c([N+](=O)[O-])c1 | inactive: 2.7% |
| CCOC(=O)Nc1cccc([As](=O)(O)O)c1 | inactive: -0.9% |
| Cc1cc(SC(NC(=O)c2ccccc2)C(Cl)(Cl)Cl)nc(C(C)C)n1 (stereo not given) | inactive: 0.8% |
| CCOC(=O)Nc1ccc([As](=O)(O)O)c(O)c1 | inactive: -1.4% |
